Experimental data taken from DBAASP.

Key:
Assay in all cases: ≥ marks a high value that may be exact or a test limit, other limits are often not marked, values filed in µg/mL are converted to µM
[1] = system: Erwinia amylovora PMV 6076
[2] = system: Pseudomonas syringae pv. syringae EPS 94
[3] = system: Xanthomonas campestris pv. Vesicatoria 2133-2
Bacillus subtilis = system: Bacillus subtilis
Candida albicans = system: Candida albicans
Cryptococcus neoformans = system: Cryptococcus neoformans
Escherichia coli = system: Escherichia coli
Pseudomonas putida = system: Pseudomonas putida
Saccharomyces cerevisiae = system: Saccharomyces cerevisiae
Salmonella typhimurium = system: Salmonella typhimurium
Serratia marcescens = system: Serratia marcescens
Staphylococcus aureus = system: Staphylococcus aureus
Streptococcus mutans = system: Streptococcus mutans
Streptococcus pneumoniae = system: Streptococcus pneumoniae

| MIC [1] [µM] | MIC [2] [µM] | MIC [3] [µM] | MIC (Bacillus subtilis) [µM] | MIC (Candida albicans) [µM] | MIC (Cryptococcus neoformans) [µM] | MIC (Escherichia coli) [µM] | MIC (Pseudomonas putida) [µM] | MIC (Saccharomyces cerevisiae) [µM] | MIC (Salmonella typhimurium) [µM] | MIC (Serratia marcescens) [µM] | MIC (Staphylococcus aureus) [µM] | MIC (Streptococcus mutans) [µM] | MIC (Streptococcus pneumoniae) [µM] | Structure (SMILES) |
| --- | --- | --- | --- | --- | --- | --- | --- | --- | --- | --- | --- | --- | --- | --- |
| 6.12 (≈ 19.2 µg/mL) | 3.54 (≈ 11.1 µg/mL) | 3.54 (≈ 11.1 µg/mL) | – | – | – | – | – | – | – | – | – | – | – | CC[C@H](C)[C@H](NC(=O)CNC(=O)[C@H](CC(C)C)NC(=O)[C@H](Cc1ccc(O)cc1)NC(=O)[C@H](CCCCN)NC(=O)[C@H](CC(C)C)NC(=O)[C@@H](NC(=O)[C@H](CCCCN)NC(=O)[C@H](CCCCN)NC(=O)[C@H](Cc1ccccc1)NC(=O)[C@H](CC(C)C)NC(=O)[C@H](CCCCN)NC(=O)[C@@H](N)CCCCN)[C@@H](C)CC)C(=O)NCC(=O)N[C@@H](C)C(=O)N[C@H](C(=O)N[C@@H](CC(C)C)C(=O)N[C@@H](CCCCN)C(=O)N[C@H](C(=O)N[C@@H](CC(C)C)C(=O)N[C@H](C(=O)N[C@H](C(=O)NCC(=O)N[C@@H](CC(C)C)C(=O)N[C@@H](CCCCN)C(=O)N[C@@H](CC(=O)O)C(=O)N[C@@H](CCC(=O)O)C(=O)N[C@@H](CC(C)C)C(=O)O)[C@@H](C)O)[C@@H](C)O)C(C)C)C(C)C [KKLFKKILKYLGIGAVLKVLTTGLKDEL] |
| – | – | – | 8.53 (≈ 16 µg/mL) | 34.1 (≈ 64 µg/mL) | ≥ 34.1 | 8.53 (≈ 16 µg/mL) | 17.1 (≈ 32 µg/mL) | ≥ 68.3 | 8.53 (≈ 16 µg/mL) | 17.1 (≈ 32 µg/mL) | 34.1 (≈ 64 µg/mL) | 17.1 (≈ 32 µg/mL) | 17.1 (≈ 32 µg/mL) | CC(C)C[C@H](NC(=O)CNC(=O)[C@H](C)NC(=O)[C@@H](N)CCCN=C(N)N)C(=O)N[C@@H](CCC(N)=O)C(=O)N[C@@H](Cc1ccccc1)C(=O)N1CCC[C@H]1C(=O)N[C@H](C(=O)NCC(=O)N[C@@H](CCCN=C(N)N)C(=O)N[C@H](C(=O)N[C@@H](Cc1cnc[nH]1)C(=O)N[C@@H](CCCN=C(N)N)C(=O)N[C@@H](CC(C)C)C(=O)N[C@@H](CC(C)C)C(=O)N[C@@H](CCCN=C(N)N)C(=O)O)C(C)C)C(C)C [RAGLQFPVGRVHRLLR] |

In brackets after ≈: the same amount, converted by molar mass.
